Sequences of proteins named here, by UniProt entry; tags and fusion partners are left off.
UniProt O75530, whole entry: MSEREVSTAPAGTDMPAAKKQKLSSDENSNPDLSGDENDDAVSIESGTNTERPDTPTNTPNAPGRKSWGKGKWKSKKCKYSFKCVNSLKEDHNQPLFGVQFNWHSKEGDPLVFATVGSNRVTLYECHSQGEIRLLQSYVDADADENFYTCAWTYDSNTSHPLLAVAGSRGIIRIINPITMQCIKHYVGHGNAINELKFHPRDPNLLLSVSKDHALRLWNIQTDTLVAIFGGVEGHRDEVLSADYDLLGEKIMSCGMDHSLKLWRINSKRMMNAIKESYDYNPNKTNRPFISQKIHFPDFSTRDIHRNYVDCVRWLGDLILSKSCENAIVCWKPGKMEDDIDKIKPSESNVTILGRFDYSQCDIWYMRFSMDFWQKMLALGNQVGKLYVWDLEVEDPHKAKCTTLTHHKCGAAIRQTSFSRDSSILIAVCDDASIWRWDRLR

The test addresses PRC2 enzyme (Homo sapiens (Human), UniProt O75530). Description: PRC2 enzyme activity, TR-FRET method. In kind it is biochemical. As for the experimental part: The TR-FRET method was used to measure the PRC2 enzyme activity. First, the enzyme was mixed with compounds at different concentrations and incubated for 30 min at room temperature. The biotin-labeled histone H3 peptide substrate and the cofactor S-adenosylmethionine (SAM) were added to initiate the enzymatic reaction. After reaction was performed at room temperature for 4 hour, Acceptor and Donor were added and incubated for half an hour. The multifunctional microplate reader EnVision (Perkin Elmer Inc.) was used to detect the fluorescence signal. Data were analyzed using GraphPad Prism 5.0 software, and IC50 values were obtained.
In general terms: TR-FRET usually uses a lanthanide donor and a delayed reading to cut background.
On to `C1=C(c2cnc(NCc3ccco3)n3cnnc23)CCOC1` [E-Y4], for which the IC50 stood at 511 nM.

Consider `Fc1ccc2c(c1CNc1ncc(C3=CCOCC3)c3nncn13)CCO2` [E-Y1], for which the half-inhibitory concentration (IC50) came out at 18 nM.

As for `O=C(NCc1ccccc1)N1CC=C(c2cnc(NCc3ccco3)n3cnnc23)CC1` [E-Y28], the IC50 stood at 107 nM.

A word on the IC50: it is the concentration that inhibits the measured activity by half. A low value points to inhibition by little substance.

(Values after US11013745B2, “Triazolopyrimidine, triazolopyridine compounds, and the composition thereof for treating PRC2-mediated diseases” (SHANGHAI INSTITUTE OF MATERIA MEDICA, CHINESE ACADEMY OF …, priority 2017, dated 2021).)
